Sampled rows, rich in hits. Any-hit rate of the full collection: about 1.5%.
INS-1E GSIS act – GLuc luminescence reporter in INS-1E cells, primary screen for activators of glucose-dependent secretion of insulin; INS-1E GLuc reporter insulin secretion, 2-3 h; activation, % at 16.6 µM; 370,000 compounds, 0.61% hits;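 active = lowest replicate activation of at least 40%, so every replicate reaches that level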;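 note: 0% = median of neutral control wells and 100% = median of IBMX positive control wells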
Yeast UUG start – alters start codon recognition fidelity in yeast. S. cerevisiae UUG-firefly luciferase reporter, luminescence/redox ratio. activity score, % at 18.7 µM. 0.13% of 350,000 active. AID 602363;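 active = replicate mean at a twofold rise or more, about +100% in these data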;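 also: firefly luciferase made from a UUG start codon reports start codon fidelity; reporter light over untreated wells divided by growth signal over untreated wells; some hits fall short of that in this replicate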
RAD54 branch – inhibitors of human RAD54 branch migration, primary screen, biochemical, fluorescence, single point. DNA repair and recombination protein RAD54-like (Homo sapiens), Q92698. RAD54 Holliday junction branch migration, FAM/BHQ fluorescence. inhibition, % at 10.4 µM. 360,000 compounds, 0.14% hits. AID 602329, 2012;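 active = mean normalized replicate activity at least 40 and at least half of replicates scoring 40 or more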;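 note: 0% = median of neutral control wells and 100% = median of positive control wells; inhibitors cause a drop in the FAM fluorescence signal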
RAD52 inh – RAD52 DNA annealing inhibitors, primary screen, biochemical, FRET, single point, set 2; AID 651710, 2012; 360,000 compounds, 0.46% hits; DNA repair protein RAD52 homolog (Homo sapiens), P43351; recombinant RAD52 DNA annealing, FRET fluorescence; inhibition, % at 18.7 µM;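 active = every replicate showing at least 50% inhibition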
PglD inh – C. jejuni PglD acetyltransferase inhibitors, primary screen, biochemical, DTNB colorimetric, single point; UDP-N-acetylbacillosamine N-acetyltransferase PglD (Campylobacter jejuni); purified PglD enzyme, DTNB colorimetric CoA detection; inhibition, % at 12.5 µM; 360,000 compounds, 0.098% hits; AID 602405, 2012; in the data active = inhibition above about 16%, passing the limit was not always enough
CASP6 VEID inh – human caspase-6 inhibitors, primary screen, biochemical, VEID-R110 fluorescence, single point, set 2; P55212; purified caspase-6, Z-VEID-R110 cleavage fluorescence; inhibition, % at 12.5 µM; 350,000 compounds, 0.53% hits; AID 686996, 2013;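 active = mean inhibition across replicates at least about 35%, with every replicate also reaching that limit, limit read from the data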;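 note: 0% = median of neutral control wells and 100% = no fluorescence left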
An asterisk follows results filed as active; · = no result.

Key to letters: A = INS-1E GSIS act; B = Yeast UUG start; C = RAD54 branch; D = RAD52 inh; E = PglD inh; F = CASP6 VEID inh
1. CC(C)(C)OC(=O)N1O[C@H]2C[C@@H]1[C@@H]1[C@@H]2N=NN1C12CC3CC(CC(C3)C1)C2
  A = 44*	B = -6	C = -11	D = 7	E = 8	F = 3

2. CCC1CN(S(=O)(=O)c2cc(-c3cc(C)no3)ccc2OC)c2cc(C)ccc2O1 (configuration not stated)
  A = 10	B = ·	C = ·	D = 1	E = ·	F = 4

3. O=C(NC1CCS(=O)(=O)C1)N1CCCCC1 (configuration not stated)
  A = ·	B = -12	C = -4	D = ·	E = -9	F = ·

4. Cc1ccc(N2CCN(/N=C/c3c(C)nn(-c4ccccc4)c3Cl)CC2)cc1
  A = 5	B = ·	C = ·	D = -7	E = ·	F = 45*

5. Cc1ccc(/C=N/N2CCN(c3ccccc3)CC2)cc1
  A = 16	B = ·	C = ·	D = -6	E = ·	F = 9

6. CCOc1ncccc1C(=O)Nc1ncc(C)s1
  A = 110*	B = ·	C = ·	D = 0	E = ·	F = 0

7. CC(CCc1ccccc1)NC(=O)c1ccccc1Cl (configuration not stated)
  A = 3	B = -10	C = 6	D = -6	E = -9	F = -1

8. CSc1ncccc1C(=O)Nc1ncc(C)s1
  A = -8	B = -16	C = -10	D = 1	E = 1	F = -1

9. CCOc1ncccc1C(=O)NC(C)CCc1ccccc1 (configuration not stated)
  A = 51*	B = -9	C = -1	D = 5	E = 1	F = -1

10. CCOc1ncccc1C(=O)NCc1cccc(OC)c1
  A = 88*	B = 17	C = -11	D = ·	E = -2	F = ·

11. O=C(NCC(=O)N1CC=C(c2ccccc2)CC1)c1ccc(OC(F)F)cc1
  A = ·	B = -21	C = -4	D = -24	E = -2	F = 0

12. O=C(NCC(=O)N1CC=C(c2ccccc2)CC1)c1ccccc1Br
  A = 7	B = -7	C = 0	D = -13	E = -3	F = 80*

13. CCSc1nc2c([nH]1)c(=O)n(C)c(=S)n2C
  A = 7	B = -10	C = -4	D = -9	E = 1	F = 0

14. Cn1c(=O)c2[nH]c(SCc3ccccn3)nc2n(C)c1=S
  A = 181*	B = ·	C = ·	D = -6	E = ·	F = -2

15. C[C@H](CO)N1C[C@H](C)[C@H](CN(C)S(=O)(=O)c2ccc(Cl)cc2)Oc2c(NC(=O)NC3CCCCC3)cccc2C1=O
  A = ·	B = -10	C = 6	D = -20	E = -1	F = 21

16. O=C(Nc1ccc(C(=O)N2CCCC2)cc1)c1ccc2c(c1)OCO2
  A = -10	B = -9	C = 2	D = -3	E = 1	F = 44*

17. O=C(c1ccc2c(c1)OCO2)N1CCCC1
  A = ·	B = -4	C = -1	D = ·	E = -2	F = ·

18. Clc1cccc(-c2nn3c(Cn4cnc5ccccc54)nnc3s2)c1
  A = -1	B = ·	C = ·	D = 6	E = ·	F = 57*

19. c1csc(-c2nn3c(Cn4cnc5ccccc54)nnc3s2)c1
  A = ·	B = -30	C = -1	D = ·	E = 1	F = ·

20. CCCCc1nnc2c(N(C)S(=O)(=O)c3ccccc3)nc3ccccc3n12
  A = 44*	B = -14	C = -18	D = 8	E = 0	F = 3

21. O=C1NC(=O)/C(=C\c2ccc(O)cc2O)S1
  A = -34	B = ·	C = ·	D = -23	E = ·	F = 87*

22. CCOC(=O)c1cc2sccc2n1CC(=O)O
  A = 18	B = -24	C = 12	D = -14	E = -3	F = 3

23. CCOC(=O)c1cc2sccc2n1CC(=O)N1c2ccccc2CC1C (configuration not stated)
  A = 472*	B = ·	C = ·	D = ·	E = ·	F = ·

24. Cc1ccc(S(=O)(=O)N(C)C[C@H]2Oc3c(NS(=O)(=O)c4ccc(F)cc4)cccc3C(=O)N([C@H](C)CO)C[C@@H]2C)cc1
  A = -10	B = 0	C = 3	D = ·	E = -1	F = ·

25. CCCCCOc1ccc(C2C(C(=O)c3ccc(C)o3)=C(O)C(=O)N2c2cc(C)on2)cc1 (configuration not stated)
  A = -10	B = -11	C = 6	D = -7	E = -3	F = 39*

26. CCOc1ccc(C2C(C(=O)c3ccc(C)o3)=C(O)C(=O)N2c2cc(C)on2)cc1OC (configuration not stated)
  A = -13	B = -9	C = -9	D = -5	E = 3	F = 3

27. CCNC(=S)N/N=C(\C)c1cccc(C(F)(F)F)c1
  A = -19	B = ·	C = ·	D = 1	E = ·	F = 0

28. CSc1nc(N2CCOCC2)c2ccccc2n1
  A = 92*	B = ·	C = ·	D = -5	E = ·	F = -2

29. CSc1nc(Cl)cc(N2CCOCC2)n1
  A = 53*	B = ·	C = ·	D = -16	E = ·	F = -1

30. CSc1nc(N2CCN(c3ccccc3Cl)CC2)c2ccccc2n1
  A = -6	B = -16	C = 6	D = -22	E = 1	F = 15

31. CC(NC(=O)/C(=C/c1ccc2c(c1)OCO2)NC(=O)c1cccc([N+](=O)[O-])c1)C(=O)O (configuration not stated)
  A = 1	B = ·	C = ·	D = -3	E = ·	F = 0

32. O=C(O)COc1ccc(/C=N/NC(=O)c2ccc(-c3csc(Nc4ccc(Cl)cc4)n3)cc2)cc1
  A = 24	B = -11	C = 3	D = -4	E = 3	F = 20

33. CCOc1cc(/C=N/NC(=O)c2ccc(-c3csc(Nc4ccc(C)cc4)n3)cc2)ccc1OCC(=O)O
  A = 3	B = ·	C = ·	D = -4	E = ·	F = 50*

34. Cc1cc(C)nc(NC(=O)Nc2ccc3c(c2)OCO3)c1
  A = 1	B = -20	C = 4	D = -4	E = -4	F = 0

35. CCC(CC)CN1CCN=C1Nc1ccccc1
  A = 59*	B = -17	C = 0	D = -11	E = 2	F = 2

36. Cn1cc(Br)c(C(=O)NNC(=O)c2ccccc2)n1
  A = 42*	B = -3	C = -1	D = ·	E = -5	F = ·

37. Cn1cc(Br)c(C(=O)NNC(=O)c2ccc(Br)cc2)n1
  A = ·	B = ·	C = ·	D = -8	E = ·	F = 2

38. Cc1ccc(S(=O)(=O)N2CCC[C@H]2C(=O)Oc2ccccc2)cc1
  A = -13	B = ·	C = ·	D = -14	E = ·	F = 1

39. COc1ccc(C(=O)c2cnc[nH]2)cc1OC
  A = 70*	B = -20	C = -1	D = -11	E = -12	F = 1

40. Cc1cc2c(cc1S(=O)(=O)N1CCN(c3ccc(Cl)cc3)CC1)OCCN2C
  A = 0	B = 2	C = -1	D = -18	E = -2	F = -1

41. O=C1C2=C(c3ccccc31)[N+](=O)C1CCCCC1N2[O-] (configuration not stated)
  A = ·	B = 21	C = 8	D = ·	E = -4	F = ·

42. O=C1C2=C(c3ccccc31)[N+](=O)[C@@H]1CCCC[C@@H]1N2[O-]
  A = 3	B = -6	C = -6	D = -16	E = -3	F = 63*

43. O=C(Nc1cccc(Cl)c1)c1cnn2cccnc12
  A = 58*	B = -20	C = -6	D = ·	E = -4	F = ·

44. Cc1cc(NC(=O)c2cnn3cccnc23)no1
  A = -2	B = -32	C = -7	D = 11	E = -5	F = 8

45. O=C1CCCC2=C1C(c1ccc(O)c(O)c1)c1c(ccc3ncccc13)N2 (configuration not stated)
  A = -6	B = ·	C = ·	D = 2	E = ·	F = 62*

46. Cc1ccc(-c2cccc(CN3CCN(C(C)C)C(CCO)C3)c2)o1 (configuration not stated)
  A = 0	B = ·	C = ·	D = 1	E = ·	F = -9

47. COCOc1cc(O)c2c(=O)c(OCOC)c(-c3ccc(OCOC)c(OCOC)c3)oc2c1
  A = ·	B = 17	C = -1	D = 5	E = 3	F = 51*

48. COc1c(-c2ccc(O)c(O)c2)oc2cc(O)cc(O)c2c1=O
  A = 70*	B = -13	C = 21	D = -18	E = -6	F = 48*

49. COCOc1ccc(-c2cc(=O)c3c(OCOC)cc(OCOC)cc3o2)cc1
  A = ·	B = -7	C = 0	D = ·	E = -3	F = ·

Sorted by SMILES length (descending): part of the list above.
Key to letters: A = INS-1E GSIS act; B = Yeast UUG start; C = RAD54 branch; D = RAD52 inh; E = PglD inh; F = CASP6 VEID inh
47. COCOc1cc(O)c2c(=O)c(OCOC)c(-c3ccc(OCOC)c(OCOC)c3)oc2c1
  A = ·	B = 17	C = -1	D = 5	E = 3	F = 51*

36. Cn1cc(Br)c(C(=O)NNC(=O)c2ccccc2)n1
  A = 42*	B = -3	C = -1	D = ·	E = -5	F = ·

28. CSc1nc(N2CCOCC2)c2ccccc2n1
  A = 92*	B = ·	C = ·	D = -5	E = ·	F = -2

Bioassay records from PubChem.
